Values quoted from earlier work in article PMC3438226 (Bioorganic & medicinal chemistry, 2012).

Molecular target: T1, human MTAP (Homo sapiens, UniProt Q13126)
T1 sequence (Q13126 1-283): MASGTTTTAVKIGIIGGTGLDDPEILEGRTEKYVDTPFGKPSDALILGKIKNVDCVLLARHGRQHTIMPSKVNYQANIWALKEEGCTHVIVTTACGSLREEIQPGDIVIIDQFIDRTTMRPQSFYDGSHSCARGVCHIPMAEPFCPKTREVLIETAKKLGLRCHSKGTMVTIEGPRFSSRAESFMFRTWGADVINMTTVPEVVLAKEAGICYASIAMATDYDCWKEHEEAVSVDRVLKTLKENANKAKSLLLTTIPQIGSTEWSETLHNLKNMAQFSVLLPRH
Details: read-out: Ki* human MTAP; Ki* value; cited from earlier work

Question: Which Ki does the source give for “(1S)-1-(9-deazaadenin-9-yl)-1,4-dideoxy-1,4-imino-5-methylthio-D-ribitol [Compound 3]” here?
Answer: 1 ± 0.5 nM
